Assay results as given in US4605642A, “CRF antagonists” (The Salk Institute for Biological Studies, priority 1984, dated 1986).

Experiments:
[1] = system: spontaneous ACTH release; test: Spontaneous ACTH release by adrenalectomized rats; format: in vivo, rat; settings: iv 3 mg/kg BW (2.7 nmole)
Experimental: (§1) The synthetic CRF antagonists from Examples I and II were examined for their effects on the secretion of ACTH and β-endorphin in vitro and the synthetic AHC peptide is also examined in vivo. The effectiveness of synthetic CRF antagonists to block the secretion of ACTH and β-endorphin by cultured rat pituitary cells is measured using the procedure as generally set forth in Vale et al., Endocrinology, 91, 562 (1972). In vivo testing is carried out using the general procedure set forth in C. Rivier et al., Science, 218, 377 (1982).
(§2) The in vivo effect of CRF antagonists is tested on the spontaneous ACTH release by adrenalectomized rats.

[2] = system: CRF-induced ACTH secretion; test: CRF-induced ACTH secretion in intact, non-anesthetized rats; format: in vivo, rat
Experimental: as §1, §2

## CSCC[C@H](NC(=O)[C@H](CCC(=O)O)NC(=O)[C@H](CC(C)C)NC(=O)[C@H](CCSC)NC(=O)[C@H](CCC(=O)O)NC(=O)[C@H](CCCNC(=N)N)NC(=O)[C@H](CC(C)C)NC(=O)[C@H](CC(C)C)NC(=O)[C@H](Cc1c[nH]cn1)NC(=O)[C@H](Cc1ccccc1)NC(=O)[C@@H](NC(=O)[C@H](CC(C)C)NC(=O)[C@@H](N)CC(=O)O)[C@@H](C)O)C(=O)N[C@@H](C)C(=O)N[C@@H](CCCCN)C(=O)N[C@@H](C)C(=O)N[C@@H](CCC(=O)O)C(=O)N[C@@H](CCC(N)=O)C(=O)N[C@@H](CCC(=O)O)C(=O)N[C@@H](C)C(=O)N[C@@H](CCC(=O)O)C(=O)N[C@@H](CCC(N)=O)C(=O)N[C@@H](C)C(=O)N[C@@H](C)C(=O)N[C@@H](CC(C)C)C(=O)N[C@@H](CC(N)=O)C(=O)N[C@@H](CCCNC(=N)N)C(=O)N[C@@H](CC(C)C)C(=O)N[C@@H](CC(C)C)C(=O)N[C@@H](CC(C)C)C(=O)N[C@@H](CCC(=O)O)C(=O)N[C@@H](CCC(=O)O)C(=O)N[C@@H](C)C(N)=O [AHC (9-41)]
[1]
  time for which the decrease in plasma ACTH is statistically significant: 2 h
[2]
  dose level at which inhibition of CRF-induced ACTH secretion is significant: 0.09 µmol
